# Measured values taken from PubChem BioAssay AID927 (National Center for Advancing Translational Sciences (NCATS), 2007).
# Amino acid sequences for entries named in this document (tags omitted).
# UniProt O75604, whole entry: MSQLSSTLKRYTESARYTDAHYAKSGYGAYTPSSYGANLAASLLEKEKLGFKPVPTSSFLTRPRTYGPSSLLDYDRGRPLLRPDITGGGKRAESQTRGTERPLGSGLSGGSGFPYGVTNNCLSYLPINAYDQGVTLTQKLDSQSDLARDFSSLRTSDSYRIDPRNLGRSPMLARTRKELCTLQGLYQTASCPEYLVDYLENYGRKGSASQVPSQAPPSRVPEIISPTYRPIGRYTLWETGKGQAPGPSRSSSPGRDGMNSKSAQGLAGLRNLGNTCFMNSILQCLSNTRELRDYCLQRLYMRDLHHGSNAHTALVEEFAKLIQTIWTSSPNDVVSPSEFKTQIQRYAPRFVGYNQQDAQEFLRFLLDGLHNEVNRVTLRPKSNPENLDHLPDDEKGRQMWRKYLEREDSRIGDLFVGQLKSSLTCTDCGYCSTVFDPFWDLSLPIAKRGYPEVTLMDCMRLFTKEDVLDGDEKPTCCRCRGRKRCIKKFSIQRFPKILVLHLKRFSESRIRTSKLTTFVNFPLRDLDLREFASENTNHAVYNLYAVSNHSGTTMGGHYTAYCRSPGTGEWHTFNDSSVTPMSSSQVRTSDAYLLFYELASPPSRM
# Only a part is listed here, and it is no random draw. The source made the active and inactive calls. Calls follow the shape of the dose curve; as a rule, active = well fitted inhibition curve with a large enough effect; inconclusive = small, poorly fitted or top-dose-only effect; inactive = no such curve, though single readings can be large or run the other way.
# Target: Ubiquitin carboxyl-terminal hydrolase 2 (Homo sapiens) (UniProt O75604)
# Test: qHTS Assay for Inhibitors of Ubiquitin-specific Protease USP2a; also: nearly all actives have a fitted effect of over 60% in size
# Settings: USP2a enzymatic assay; at 38.3 µM (top of the series)
# Excerpt: NIH Molecular Libraries Screening Centers Network [MLSCN]
# NIH Chemical Genomics Center [NCGC]
# PI Name: Nicholson, Ben. Progenra Inc, Malvern, PA
# Homeostasis of cellular proteins is maintained through a combination of synthesis and degradation. The pathway that accounts for the majority of protein degradation is the ubiquitin-proteasomal pathway. Ubiquitin (Ub) is highly conserved in all cells and the generation of a multi-Ub chain typically targets proteins for degradation by the proteasome. However, ubiquitination is highly reversible and dynamic. Deubiquitination, the reverse process, is catalyzed through the action of enzymes referred to as isopeptidases or deubiquitinating enzymes (DUBs). This group of enzymes is collectively responsible for maintaining adequate pools of free ubiquitin and regulating the ubiquitination status of cellular proteins. The class of DUBs referred to as the ubiquitin-specific proteases (USP) family functions endoproteolytically to cleave Ub chains from a wide range of protein substrates. USP2a deubiquitinates fatty acid synthase (FASN) which has recently been identified as an emerging oncology target. To identify inhibitors of USP2a a cell-free assay was employed.
# The reporter enzyme chosen is phospholipase A2 (PLA2), which has an absolute requirement for a free amino terminus. Thus, fusion of a UBL to the N-terminus of PLA2 inactivates PLA2. When the UBL-PLA2 reporter enzyme is cleaved by USP2, the activated reporter can subsequently act on its substrate, which is the commercially available NBD C6-HPC (Invitrogen). Thus, this coupled assay gives a fluorescent read-out, which is generated through the cleavage of the PLA2 reporter enzyme. The assay, developed by Progenra, Inc. uses Ub-PLA2 and USP2a at near equal and low (nM) amounts and has been licensed for sale by LifeSensors, Inc. as the Ub-IsoPro1 kit.
# NCGC Assay Protocol Summary:
# The assay buffer, prepared fresh at the day of the assay, contains 20mM Tris-HCl pH 8.0, 2mM CaCl2, 2mM beta-Mercaptoethanol, 0.1% DMSO. 3ul of 40nM (20nM final) USP2 core, which is stored on ice, is dispensed into a medium-binding black solid Kalypsys 1,536 well plate using the Kalypsys dispenser. The assay plate is then pinned with 23nL compound with the Kalypsys pintool in columns 5-48. The controls are pinned as follows: column 1&2 two-fold dilutions of 2M NEM in duplicate; column 3 DMSO; column 4 2M NEM (final concentration 38.2mM). The assay plate is incubated at RT for 30min. Subsequently, 3uL of 40nM (20nM final) Ub-PLA2 and 40uM (20uM final) NBD C6-HPC (stored on ice and protected from light) were dispensed into the plate using the Kalypsys dispenser. Plates were read immediately (0 Hour) on an Envision (Perkin Elmer) plate reader using the following wavelengths Ex 460nm /Em 535nm. Then, the assay plates were incubated for 2.5 hours and read again on the Envision using the same settings
# Data were normalized to the to AC100 inhibition (NEM). Concentration-response curves were fitted to the normalized data and the concentration-response curves were then classified based on curve quality (r2), response magnitude and degree of measured activity. The time zero reading was used to flag fluorescence artifacts.
# Keywords: ubiquitination, deubiquitination, proteases, profluorescent, MLSMR, MLSCN, NIH Roadmap, qHTS, NCGC
row,Compound,"activity change, negative = inhibition"
1,N#CC1(Nc2ccccc2)CCN(CCc2ccccc2)CC1,inactive: -1.22%
2,O=C(OC1CN2CCC1CC2)C1c2ccccc2Oc2ccccc21 (stereo unspecified),inactive: 8.77%
3,CCOc1ncccc1C(=O)NCC1(N2CCOCC2)CCCCC1,inactive: 0.0342%
4,CCC(CO)(C(=O)OC1CN2CCC1CC2)c1ccccc1 (stereo unspecified),inactive: 4.37%
5,Fc1ccccc1NC1CCN(Cc2ccccc2)CC1,inactive: -4.34%
6,N/C(=N\O)c1c(N)no[n+]1[O-],inactive: -1.12%
